These are literature values, as cited in US5866346A (priority 1997, dated 1999).

Sequences of proteins named here, by UniProt entry; tags and fusion partners are left off. A change or cut given only in a name is not applied to a line headed by its entry.
UniProt P33534: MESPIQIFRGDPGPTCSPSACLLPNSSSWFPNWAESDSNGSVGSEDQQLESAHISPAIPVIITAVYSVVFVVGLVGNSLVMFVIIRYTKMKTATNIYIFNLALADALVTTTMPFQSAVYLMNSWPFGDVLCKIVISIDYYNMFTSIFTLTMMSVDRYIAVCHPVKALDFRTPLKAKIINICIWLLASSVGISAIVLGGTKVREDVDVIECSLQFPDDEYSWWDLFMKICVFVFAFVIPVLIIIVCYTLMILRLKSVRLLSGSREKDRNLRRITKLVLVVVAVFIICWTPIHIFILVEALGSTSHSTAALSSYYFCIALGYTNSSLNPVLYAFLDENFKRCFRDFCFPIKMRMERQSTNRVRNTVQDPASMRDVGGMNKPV

One may read the Ki as a measure of affinity in units of concentration, obtained from inhibition or displacement.

The data set concerns the target kappa opioid receptor (KOR) (Mus musculus, UniProt P33534). Conditions: read-out: KOR (Ki) Mouse (23); cited from earlier work.

`CC[C@H](C)[C@H](NC(=O)[C@H](CCCNC(=N)N)NC(=O)[C@H](CCCNC(=N)N)NC(=O)[C@H](CC(C)C)NC(=O)[C@H](Cc1ccccc1)NC(=O)CNC(=O)CNC(=O)[C@@H](N)Cc1ccc(O)cc1)C(=O)N[C@@H](CCCNC(=N)N)C(=O)N1CCC[C@H]1C(=O)N[C@@H](CCCCN)C(=O)N[C@@H](CC(C)C)C(=O)N[C@@H](CCCCN)C(=O)N[C@@H](Cc1c[nH]c2ccccc12)C(=O)N[C@@H](CC(=O)O)C(=O)N[C@@H](CC(N)=O)C(=O)N[C@@H](CCC(N)=O)C(=O)O` [dyn A, dynorphin A]: the Ki is 0.5 nM.
